Assay results published in ChEMBL document CHEMBL1136068 (Bioorg Med Chem Lett, 2003).

Key:
[1] = biological target: T1, Progesterone receptor (Homo sapiens, UniProt P06401); experiment: Effective concentration for agonist activity towards human progesterone receptor (hPR) expressed in CV-1 cells; Not active; assay type: functional, cell-based
T1 sequence (P06401 whole entry): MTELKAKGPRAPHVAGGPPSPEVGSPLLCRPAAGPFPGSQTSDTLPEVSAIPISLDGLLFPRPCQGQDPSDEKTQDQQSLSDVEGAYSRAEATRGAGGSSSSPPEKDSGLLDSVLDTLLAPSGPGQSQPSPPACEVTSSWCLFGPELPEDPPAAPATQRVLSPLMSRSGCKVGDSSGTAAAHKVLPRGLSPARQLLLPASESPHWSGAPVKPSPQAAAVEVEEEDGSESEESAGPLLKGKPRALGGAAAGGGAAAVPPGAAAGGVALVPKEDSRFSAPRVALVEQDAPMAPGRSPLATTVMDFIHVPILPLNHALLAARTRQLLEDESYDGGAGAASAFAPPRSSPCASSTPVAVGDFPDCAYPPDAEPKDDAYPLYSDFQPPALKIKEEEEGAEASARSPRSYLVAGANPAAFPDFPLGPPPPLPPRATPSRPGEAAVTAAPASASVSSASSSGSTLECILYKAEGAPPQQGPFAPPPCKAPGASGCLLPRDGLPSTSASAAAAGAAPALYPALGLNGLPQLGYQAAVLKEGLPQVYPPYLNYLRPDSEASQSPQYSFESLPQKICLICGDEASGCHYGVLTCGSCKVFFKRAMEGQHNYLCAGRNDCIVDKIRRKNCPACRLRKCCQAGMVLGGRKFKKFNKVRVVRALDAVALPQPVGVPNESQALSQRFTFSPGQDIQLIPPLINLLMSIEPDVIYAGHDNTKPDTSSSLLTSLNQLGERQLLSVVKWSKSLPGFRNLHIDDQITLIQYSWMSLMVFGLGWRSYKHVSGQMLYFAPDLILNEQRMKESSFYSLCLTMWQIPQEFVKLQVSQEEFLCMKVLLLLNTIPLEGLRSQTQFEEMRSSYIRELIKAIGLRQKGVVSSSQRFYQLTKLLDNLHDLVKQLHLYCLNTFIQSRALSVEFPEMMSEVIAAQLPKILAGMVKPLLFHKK

[2] = biological target: T1, Progesterone receptor; experiment: Inhibitory concentration for antagonistic activity towards human progesterone receptor (hPR) using the cotransfection assay in CV-1 cells; Not active; assay type: functional, cell-based

| SMILES | EC50 [1] | IC50 [2] |
| --- | --- | --- |
| CC#C[C@]1(O)CC[C@H]2[C@@H]3CCC4=CC(=O)CCC4=C3[C@@H](c3ccc(N(C)C)cc3)C[C@@]21C [MIFEPRISTONE] | Not Active | – |
| CC(=O)[C@H]1CC[C@H]2[C@@H]3CCC4=CC(=O)CC[C@]4(C)[C@H]3CC[C@]12C [PROGESTERONE] | – | Not Active |
